Test results taken from BindingDB's records for patent US20240287079 (Japan Tobacco, 2024).

Sequences of proteins named here, by UniProt entry; tags and fusion partners are left off.
UniProt Q96P20, whole entry: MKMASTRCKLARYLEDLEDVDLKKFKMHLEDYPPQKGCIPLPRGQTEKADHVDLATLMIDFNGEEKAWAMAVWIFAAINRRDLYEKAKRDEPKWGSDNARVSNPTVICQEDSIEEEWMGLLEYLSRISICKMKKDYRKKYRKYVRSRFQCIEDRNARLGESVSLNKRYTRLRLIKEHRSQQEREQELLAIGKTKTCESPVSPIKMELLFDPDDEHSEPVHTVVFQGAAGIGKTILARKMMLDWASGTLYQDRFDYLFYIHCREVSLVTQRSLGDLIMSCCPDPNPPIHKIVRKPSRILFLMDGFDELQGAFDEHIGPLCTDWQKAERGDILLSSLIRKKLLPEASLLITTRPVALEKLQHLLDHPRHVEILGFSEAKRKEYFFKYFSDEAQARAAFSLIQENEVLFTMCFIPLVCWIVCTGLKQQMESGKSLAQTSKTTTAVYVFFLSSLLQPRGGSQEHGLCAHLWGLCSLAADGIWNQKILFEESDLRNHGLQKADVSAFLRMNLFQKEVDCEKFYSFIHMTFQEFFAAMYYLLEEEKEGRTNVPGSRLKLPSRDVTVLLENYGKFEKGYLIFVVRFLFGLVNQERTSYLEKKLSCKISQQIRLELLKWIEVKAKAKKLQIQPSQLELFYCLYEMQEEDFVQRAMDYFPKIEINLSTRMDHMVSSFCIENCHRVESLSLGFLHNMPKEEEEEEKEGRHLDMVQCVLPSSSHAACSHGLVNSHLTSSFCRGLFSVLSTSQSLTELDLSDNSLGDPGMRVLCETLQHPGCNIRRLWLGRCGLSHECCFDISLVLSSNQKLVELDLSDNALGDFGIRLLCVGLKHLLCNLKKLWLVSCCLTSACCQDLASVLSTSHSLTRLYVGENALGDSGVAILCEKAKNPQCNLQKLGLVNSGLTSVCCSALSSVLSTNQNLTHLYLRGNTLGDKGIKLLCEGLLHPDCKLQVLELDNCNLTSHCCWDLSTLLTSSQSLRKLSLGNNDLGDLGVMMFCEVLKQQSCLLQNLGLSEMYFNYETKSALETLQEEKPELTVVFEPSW

Biological target: NACHT, LRR and PYD domains-containing protein 3 (Homo sapiens, UniProt Q96P20)
Experiment: Evaluation of NLRP3 Inflammasome Inhibitory Activity Assay
Method: The NLRP3 inflammasome inhibitory activity of test compounds were evaluated on the basis of the inhibitory activity of the IL-1β production in THP1-Null cells (Product Number: thp-null, InvivoGen). […] The supernatant of the culture was removed, and thereto was added media for assay (25 μL/well) containing 1 μg/mL Lipopolysaccharides (Product Number: L2654, Sigma-Aldrich (registered trademark)). […] The supernatant of the culture was removed. […] A solution containing a test compound (20 μL/well) was added to test compound-setting wells. […] The supernatant of the culture was cryonically stored (set at −20° C.) until measurement of IL-1β.

Cc1cc(Br)cc(C)c1-n1cc2c(=O)[nH]c(N3CCOCC3)nc2n1 [US20240287079, Example 94]
IC50: 6.5 nM
